Experimental data as given in PubChem BioAssay AID540267 (National Center for Advancing Translational Sciences (NCATS), 2011).
This is a selection; strong and weak results do not stand in their true shares. Calls of active or inactive are those of the source. Rule as the data show it: active = activity change below about -80%; inconclusive = between about -30% and that limit; inactive = weaker than that.

Assay: Small Molecules that selectively kill Giardia lamblia: qHTS;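 also: parasites exposed to compound for two days anaerobically before the ATP read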
Settings: Giardia lamblia trophozoite viability; at 7.66 µM; stronger effect = lower value
Excerpt: Giardia lamblia is a human pathogen afflicting impoverished nations, and the most common cause of outbreaks of diarrhea in the United States. Giardia has been classified by the CDC as a category B bioterrorism organism. The favored anti giardiasis drugs in the US are metronidazole or tinidazole, compounds that have undesirable side effects. Moreover, increasing resistance to drug regimes and recurrence are a concern. It is thus clear that alternative drug treatments are needed.
In a collaboration between the University of Maryland, College Park and the NIH Chemical Genomics Center, a bioluminescence Giardia viability assay based on the trophozoites' ATP content was developed. This assay is suitable for high throughput screening, and miniaturized the assay for compound screening in 1536-well plates. The goal of the project is to screen the Molecular Libraries Small Molecule Repository (MLSMR) for compounds that selectively kill Giardia trophozoites.
NIH Chemical Genomics Center [NCGC]
NIH Molecular Libraries Probe Centers Network [MLPCN]
Assay Submitter (PI): Osnat Herzberg, University of Maryland, College Park, MD.
1. Dispense 2 ul/well media
2. Dispense 23 nl/well compounds
3. Dispense 4 ul/well Giardia trophozoites at a concentration of 100 cells/well
4. Incubate 48 hrs at 37 deg C anaerobically
5. Dispense 4 ul/well ATPLite 1-Step Luminescence assay kit
6. Incubate 15-30 min at room temperature
7. Read luminescence signal on ViewLux plate reader
% is scaled to controls: 0 for no effect and ±100 for the full control effect.

SMILES | activity change
N#C/C(=C\c1ccc(N(CCBr)CCBr)cc1)C(N)=O | inactive: -8.24%
CC(=O)c1ccc(N2CC2c2ccncc2)cc1 (stereo not given) | inactive: -9.87%
C[C@@H]1C=CCP(=O)(Oc2ccccc2)O1 (stereo not given in full) | inactive: -13.7%
C[C@H]1OP(=O)(Oc2ccccc2)C[C@@H]2O[C@@H]21 (stereo not given in full) | inactive: 4.34%
Cc1ccccc1CN(C)C(=O)COC(=O)C(O)(c1ccccc1)c1ccccc1 | inactive: 52%
CC(=O)Nc1ccc(Oc2c([N+](=O)[O-])cc([N+](=O)[O-])cc2[N+](=O)[O-])cc1 | inactive: -5.37%
CC(=O)Nc1ccc([As](=O)(O)O)c(O)c1 | inactive: -22.5%
CCOc1ccc(C2=NCC(CBr)S2)cc1 (stereo not given) | inactive: -13.7%
O=P1(Nc2nc3ccc(Cl)cc3s2)COc2ccccc2O1 (stereo not given) | inactive: -11.3%
CCc1cc(O)c([N+](=O)[O-])c(C)c1[N+](=O)[O-] | inactive: -3.15%
CC(C)(C)C(=O)NC(Sc1ccccc1)C(Cl)(Cl)Cl (stereo not given) | inactive: 0.649%
CCCOP(=S)(Nc1nc(N)cc(=O)[nH]1)OCCC | inactive: 10.8%
Nc1cccc2c([As](=O)(O)O)cccc12 | inactive: -15%
CCOP(=O)(Nc1cccc2ccccc12)OCC | inactive: 0.79%
COc1cc(C2NCCC3(OCCO3)C2(C)C)cc(OC)c1OC (stereo not given) | inactive: -4.58%
CS(=O)(=O)c1ccc(Cl)c(NC(=O)COC(=O)C(O)(c2ccccc2)c2ccccc2)c1 | inactive: 11.1%
COc1cc(C(=O)NCC2(N3CCOCC3)CCCCC2)cc(Cl)c1OC(C)C | inactive: 2.37%
O=[As](O)(O)c1cccnc1 | inactive: -22.6%
O=C(OC1CN2CCC1CC2)c1ccc(Cl)cc1 (stereo not given) | inactive: -17.3%
O=[As](O)(c1cccc(O)c1)c1cccc(O)c1 | inactive: 24.6%
Cc1cccc(OCC(=O)OC2CN3CCC2CC3)c1 (stereo not given) | inactive: -19.3%
NC(=O)Nc1ccc([As](=O)(O)O)cc1 | inactive: 5.64%
CN(C(=O)Cc1ccc(Cl)c(Cl)c1)[C@H]1CC[C@@]2(CCCO2)C[C@@H]1N1CCCC1 | inactive: 9.22%

SMILES | activity change
CN(C)C(=O)c1cc([N+](=O)[O-])cc2c1-c1c(cc([N+](=O)[O-])cc1[N+](=O)[O-])C2=O | inactive: -10.1%
O=[N+]([O-])c1ccc2c(c1)nnn2O | inactive: 7.26%
CN(C(=O)Cc1ccccc1)[C@@H]1CC[C@]2(CCCO2)C[C@H]1N1CCCC1 | inactive: 11.3%
CCOP1(=S)c2c(C)nn(CCC#N)c2N=C(c2ccc(F)cc2)N1C (stereo not given) | inactive: -4.9%
N#CCCN(C(=O)COC(=O)C(O)(c1ccccc1)c1ccccc1)c1ccc(F)cc1 | inactive: 0.16%
CS(=O)(=O)c1cc([N+](=O)[O-])c2no[n+]([O-])c2c1 | inactive: -0.128%
O=P(Nc1nccs1)(c1ccccc1)c1nc2ccccc2s1 (stereo not given) | inactive: -9.41%
CCOP1(=S)c2c(C)nn(CCC#N)c2N=C(c2ccccc2F)N1C (stereo not given) | inactive: -8.47%
Nc1ccccc1[As](=O)(O)c1ccccc1 | inactive: -27%
O=C(O)COc1ccc([As](=O)(O)O)cc1[N+](=O)[O-] | inactive: -2.69%
O=P1(Nc2ncccn2)COc2ccccc2OC1 | inactive: 12.8%
O=P1(Nc2ccc(Br)cn2)COc2ccccc2OC1 | inactive: -3.46%
NS(=O)(=O)c1cccc(NC(=O)COC(=O)C(O)(c2ccccc2)c2ccccc2)c1 | inactive: -6.26%
Cc1ccc(OCC(=O)OC2CN3CCC2CC3)cc1 (stereo not given) | inactive: 0.285%
CC1CCC(C(C)C)C(OP(=O)(Nc2ccccn2)c2ccccc2)C1 (stereo not given) | inactive: 11.5%
Cc1ccc(C(=O)OC2CN3CCC2CC3)cc1 (stereo not given) | inactive: 8.56%
Cc1nn(-c2ccccc2)c2c1P(=O)(N1CCOCC1)N(C)C(c1ccccc1)=N2 (stereo not given) | inactive: -9.21%
CCCC1OP(=O)(Nc2ccccc2)OCC1CC (stereo not given) | inactive: -4.18%
O=C(/C=C/c1ccccc1)OC1CN2CCC1CC2 (stereo not given) | inactive: 13.1%
CN(C)C1(CNC(=O)c2ccc(S(C)(=O)=O)cc2)CCCCC1 | inactive: 7.79%
COc1ccccc1CNC(=O)COC(=O)C(O)(c1ccccc1)c1ccccc1 | inactive: -21.2%
CC1(CBr)Cn2c(nc3ccccc3c2=O)S1 (stereo not given) | inactive: 5.64%
CC(C)/C=N\N=C(\N)N[N+](=O)[O-] | inactive: 1.95%

SMILES | activity change
CN(C(=O)Cc1ccc(Cl)c(Cl)c1)[C@@H]1CCCC[C@H]1N1CCCC1 | inactive: -2.48%
CN(CCCl)Cc1cc(Cl)c(NC2=NCCN2)c(Cl)c1 | inactive: -18.2%
CCOP(=O)(Nc1ccc(C)cn1)OCC | inactive: -13.6%
CCOP(=O)(NC(=NC(C)c1ccccc1)NC(C)c1ccccc1)OCC (stereo not given) | inactive: -29.4%
O=P1(Nc2ccccn2)COc2ccccc2OC1 | inactive: -4.09%
CCC1=CC2Cc3nc4ccc(Cl)cc4c(N)c3C(C1)C2 (stereo not given) | inactive: 4.43%
CC(C)(C)C(=O)NC(Sc1ncccn1)C(Cl)(Cl)Cl (stereo not given) | inactive: -15.9%
Clc1n[nH]nc1-c1nn[nH][15n]1 | inactive: 5.23%
CCOC(=O)c1ccc(NC(=O)C(C)(CCl)SC)cc1 (stereo not given) | inactive: 25.1%
O=C(OC1CN2CCC1CC2)c1cccc([N+](=O)[O-])c1 (stereo not given) | inactive: 2.47%
CCOP(=O)(Nc1cccc2cccnc12)OCC | inactive: 14.1%
CCC(C)N(CC(C)C)C(=S)SC(NC(C)=O)C(Cl)(Cl)Cl (stereo not given) | inactive: -3.55%
COP1(=S)c2c(C)nn(CCC#N)c2N=C(c2ccc(F)cc2)N1C (stereo not given) | inactive: -9.5%
O=C(Nc1ccncc1[N+](=O)[O-])c1ccc([N+](=O)[O-])cc1[N+](=O)[O-] | active: -98.7%
O=C(COc1ccccc1)OC1CN2CCC1CC2 (stereo not given) | inactive: 6.24%
CCOC(=O)Nc1cccc([As](=O)(O)O)c1 | inactive: -28.9%
O=[N+]([O-])c1ccc(Nc2ccc(Oc3ccc([N+](=O)[O-])cc3[N+](=O)[O-])cc2)c([N+](=O)[O-])c1 | inactive: -28.7%
O=P(Nc1ccccn1)(c1cccc2ccccc12)c1cccc2ccccc12 | inactive: -15.8%
CC1CCNP(=O)(N(CCCl)CCCl)O1 (stereo not given) | inactive: -4.45%
CCOC(=O)Nc1ccc([As](=O)(O)O)c(O)c1 | inactive: -10.9%
Cc1cc(SC(NC(=O)c2ccccc2)C(Cl)(Cl)Cl)nc(C(C)C)n1 (stereo not given) | inactive: -11.4%
CCCCOc1ccc(C(=O)NCC2(N3CCCCC3)CCCCC2)cc1OC | inactive: -21%
CC(C)c1ccc(OP(=O)(Nc2ccccn2)Oc2ccccc2F)cc1 (stereo not given) | inactive: 20.7%

SMILES | activity change
COC(=O)C1(C)COP(=O)(N2CCCCCC2)OC1 (stereo not given) | inactive: -6.45%
ClCCSc1nnc(-c2cccnc2)o1 | inactive: -13.9%
O=[N+]([O-])c1cc([N+](=O)[O-])c(-c2ccn[nH]2)s1 | active: -97%
O=C(OC1CN2CCC1CC2)c1cccc2[nH]cnc12 (stereo not given) | inactive: 15%
CCN(CC)C(=S)SC(NC=O)C(Cl)(Cl)Cl (stereo not given) | inactive: 27.6%
CC(C)NC(=O)NP(=O)(Oc1ccccc1)Oc1ccccc1 | inactive: 18.7%
COc1cc(C(=O)NCC2(N3CCOCC3)CCCCC2)ccc1OCC(C)C | inactive: -27%
O=[N+]([O-])c1ccc(-c2cc([N+](=O)[O-])c(O)c([N+](=O)[O-])c2)cc1 | inactive: -6.05%
C[As](=O)(O)c1cccc(C(=O)O)c1 | inactive: 0.0246%
O=[As](O)(c1ccc(O)cc1)c1ccccc1O | inactive: -23.9%
Cc1ccc2nc3c(c(C)c2c1)CC(C(Cl)Cl)S3 (stereo not given) | inactive: 19.6%
Cc1ccc(OP(=O)(Nc2ccc([N+](=O)[O-])cn2)Oc2ccc(C)cc2)cc1 | inactive: 20.1%
COc1ccc(N/C(=N/P(=O)(N2CCOCC2)N2CCOCC2)N2CCOCC2)cc1 | inactive: -16.4%
O=[N+]([O-])c1cc(Oc2ccc([N+](=O)[O-])cc2C(F)(F)F)cc([N+](=O)[O-])c1 | inactive: 2.54%
Cc1cc(=O)[nH]c(N[N+](=O)[O-])n1 | inactive: -1.8%
O=C(OC1CN2CCC1CC2)C12CC3CC(CC(C3)C1)C2 (stereo not given) | inactive: 19.2%
Cc1c2c(nc3ccccc13)SC(C(Cl)Cl)C2 (stereo not given) | inactive: -29.7%
COc1cc(I)ccc1[As](=O)(O)O | active: -81.4%
COc1ccc2nc(NP(=O)(c3ccccc3)c3ccccc3)sc2c1 | inactive: -9.02%
O=P1(N(CCCl)CCCl)OCCCN1CCCl (stereo not given) | inactive: -3.23%
O=P1(N(CCCl)CCCl)Nc2ccccc2N1 | inactive: -4.37%
